{"sequences": {"note": "Sequences of proteins named here, by UniProt entry; tags and fusion partners are left off. Residues count along the entry.", "UniProt O00206, 24-839": "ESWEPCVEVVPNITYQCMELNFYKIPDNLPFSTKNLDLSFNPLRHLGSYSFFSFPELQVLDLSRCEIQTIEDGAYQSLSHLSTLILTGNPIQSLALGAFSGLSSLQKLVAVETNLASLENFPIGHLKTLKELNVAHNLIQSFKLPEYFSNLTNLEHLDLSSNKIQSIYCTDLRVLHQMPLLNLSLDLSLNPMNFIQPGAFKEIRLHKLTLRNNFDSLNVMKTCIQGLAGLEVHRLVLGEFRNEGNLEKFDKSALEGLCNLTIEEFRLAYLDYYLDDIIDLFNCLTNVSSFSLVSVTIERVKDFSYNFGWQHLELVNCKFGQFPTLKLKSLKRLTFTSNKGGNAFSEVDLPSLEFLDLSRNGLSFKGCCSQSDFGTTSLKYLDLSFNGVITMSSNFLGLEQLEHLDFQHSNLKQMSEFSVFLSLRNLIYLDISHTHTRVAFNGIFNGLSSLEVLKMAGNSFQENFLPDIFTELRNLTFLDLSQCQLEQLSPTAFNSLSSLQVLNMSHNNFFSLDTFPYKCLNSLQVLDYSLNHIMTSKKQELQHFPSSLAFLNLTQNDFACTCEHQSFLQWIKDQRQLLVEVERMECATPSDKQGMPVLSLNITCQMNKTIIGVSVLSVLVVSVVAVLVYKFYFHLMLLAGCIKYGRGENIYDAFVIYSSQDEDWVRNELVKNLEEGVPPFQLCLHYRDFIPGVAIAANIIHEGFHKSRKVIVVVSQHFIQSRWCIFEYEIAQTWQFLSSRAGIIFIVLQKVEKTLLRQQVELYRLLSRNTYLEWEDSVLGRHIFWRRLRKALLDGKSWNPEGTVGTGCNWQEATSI", "UniProt Q9Y6Y9, 17-160": "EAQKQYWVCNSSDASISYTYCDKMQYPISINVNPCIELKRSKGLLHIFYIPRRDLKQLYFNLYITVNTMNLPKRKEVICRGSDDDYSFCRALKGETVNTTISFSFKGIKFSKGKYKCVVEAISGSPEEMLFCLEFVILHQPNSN"}, "source": "patent US20130095094A1", "about": "“ASSAY” (University of Leicester, priority 2010, published 2013)", "target": "T1, human TLR-4 (co-expressing MD-2) (Homo sapiens, UniProt O00206+Q9Y6Y9)", "T1 construct": "host or cells: HEK-293", "format": "cell-based", "note": "“Also recorded” adds a separate entry of the source.", "data": [{"substance": "polymyxin-B", "values": [{"measurement": "Inhibition of TLR4-signalling induced by patient saliva samples", "value": "significantly inhibited"}, {"measurement": "Inhibition of TLR-4-signalling induced by sterile-filtered food extracts", "value": "blocked; also recorded: efficiently inhibited"}]}]}
